Earlier results in PMC4699860 (Biophysical Journal, 2015).

Tested on: Ras-GTP
Settings: cited from earlier work

Raf-1 RBD: Ras-binding domain of Raf-1
affinity for effector region of Ras-GTP (in words): nanomolar affinity
